In brackets after ≈: the same amount, converted by molar mass. Several values for one entry are separate records, joined by “and”; a condition that tells them apart may be missing. Identical values can stand only once. Counter-ions that a name gives are not always drawn.
What was measured:
[1] = Thermal analysis (DSC/TGA), thermal stability
[2] = Preliminary physical stability, open storage at 25°C/60% RH and 25°C/80% RH
[3] = Solubility at 37°C in water, buffer and simulated biological fluids (2 h, 24 h)
[4] = Solid stability, 25°C/92.5%RH open and 60°C closed, 1 week (XRPD, HPLC, color); set-up: CL (color) / Color: key to the marks not given beside the values; conditions: Solid; for Solid (XRPD): crystal form after storage
[5] = Water activity competition experiment, ethanol/water, 5°C and 25°C; conditions: ethanol/water, 5 days
[6] = test system: HFpEF animal model; assay: HFpEF mouse model (HFD + L-NAME), echocardiography and Doppler imaging; conditions: Example 6; 12 mg/kg per administration, every other day, 0.5% PVP; 3 weeks after administration; Figure 73
[7] = Pharmacokinetic study, plasma concentration by LC-MS/MS; conditions: Balb/c mice, male, fasted
[8] = 25°C/60%RH, open storage for 3 days
[9] = 25°C/80%RH, open storage for 2 days
[10] = 25°C/92.5%RH, open storage conditions
[11] = FaSSGF, pH 1.6, 37°C, LOQ: 0.5 µg/mL
[12] = FaSSGF, pH 1.6, 37°C, LOQ: 0.5µg/mL
[13] = Water, 37°C, target concentration 2mg/mL (as T-5224)
[14] = Intravenous injection 2 mg/kg, individual animals, listed as T-5224 free acid Form A, 2 mg/kg
[15] = Intravenous injection 2 mg/kg, mean of 3
[16] = Oral administration 12 mg/kg, individual animals, listed as T-5224 free acid Form A, 12 mg/kg
[17] = Oral administration 12 mg/kg, mean of 3, listed as T-5224 free acid Form A, 12 mg/kg

SMILES: O=C(O)CCc1cc(C(=O)c2ccc(OC3CCCC3)cc2O)ccc1OCc1ccc2c(O)noc2c1 [Choline salt Form A]
- Thermal weight loss (TGA) ([1]; @ 80°C): 2.6%
- Thermal weight loss (TGA) ([1]; @ 80°C to 130°C): 0.1%
- moisture absorption and color change of the solid [2, 8]: No significant moisture absorption of the solid; no significant color change.
- moisture absorption and color change of the solid [2, 9]: No significant moisture absorption of the solid; no significant color change.
- pH of the supernatant 24h ([3]; FaSSGF, pH 1.6, 37°C): 1.5
- pH of the supernatant 24h ([3]; FaSSIF-v1, pH 6.5, 37°C): 6.6
- pH of the supernatant 24h ([3]; FeSSIF-v1, pH 5.0, 37°C): 5.1
- pH of the supernatant 24h ([3]; Water, 37°C): 8.2
- CL (color) [4, 10]: A
- Solid (HPLC) Purity [4, 10]: 99.5%
- Solid (XRPD) [4, 10]: Choline salt Form A
- CL (color) ([4]; 60°C, closed container): A
- Solid (HPLC) Purity ([4]; 60°C, closed container): 99.5%
- Solid (XRPD) ([4]; 60°C, closed container): Choline salt Form A
- water activity (a.w.) at which choline salt Form A transforms to choline salt Form B / Form B is thermodynamically more stable ([5]; 5°C): ≤ 0.6
- water activity (a.w.) at which choline salt Form A transforms to choline salt Form B / Form B is thermodynamically more stable ([5]; 25°C): ≤ 0.3

SMILES: O=C(O)CCc1cc(C(=O)c2ccc(OC3CCCC3)cc2O)ccc1OCc1ccc2c(O)noc2c1 [Diethylamine salt Form A]
- moisture absorption and color change of the solid [2, 8]: No significant moisture absorption of the solid; no significant color change.
- moisture absorption and color change of the solid [2, 9]: No significant moisture absorption of the solid; no significant color change.

SMILES: O=C(O)CCc1cc(C(=O)c2ccc(OC3CCCC3)cc2O)ccc1OCc1ccc2c(O)noc2c1 [Diethylamine salt Form C]
- pH of the supernatant 24h ([3]; FaSSGF, pH 1.6, 37°C): 1.5
- pH of the supernatant 24h ([3]; Water, 37°C): 8.1
- CL (color) [4, 10]: A
- Solid (HPLC) Purity [4, 10]: 98.4%
- Solid (XRPD) [4, 10]: Diethylamine salt Form C
- CL (color) ([4]; 60°C, closed container): A
- Solid (HPLC) Purity ([4]; 60°C, closed container): 98.4%
- Solid (XRPD) ([4]; 60°C, closed container): Diethylamine salt Form C

SMILES: O=C(O)CCc1cc(C(=O)c2ccc(OC3CCCC3)cc2O)ccc1OCc1ccc2c(O)noc2c1 [Dimethylethanolamine salt Form A]
- moisture absorption and color change of the solid [2, 8]: No significant moisture absorption of the solid; no significant color change.
- moisture absorption and color change of the solid [2, 9]: No significant moisture absorption of the solid; no significant color change.

SMILES: O=C(O)CCc1cc(C(=O)c2ccc(OC3CCCC3)cc2O)ccc1OCc1ccc2c(O)noc2c1 [Potassium salt Form B]
- moisture absorption and color change of the solid [2, 8]: No significant moisture absorption of the solid; no significant color change.
- moisture absorption and color change of the solid [2, 9]: No significant moisture absorption of the solid; no significant color change.

SMILES: O=C(O)CCc1cc(C(=O)c2ccc(OC3CCCC3)cc2O)ccc1OCc1ccc2c(O)noc2c1 [Sodium salt Form B]
- moisture absorption and color change of the solid [2, 8]: No significant moisture absorption of the solid; no significant color change.
- moisture absorption and color change of the solid [2, 9]: No significant moisture absorption of the solid; no significant color change.

SMILES: O=C(O)CCc1cc(C(=O)c2ccc(OC3CCCC3)cc2O)ccc1OCc1ccc2c(O)noc2c1 [T-5224 Form A]
- solubility in pH 6.5 FaSSIF-v1 ([3]; Example 3, text summary, 37°C): approximately 7 µg/mL
- solubility in water ([3]; Example 3, text summary, 37°C): 1 to 5 µg/mL
- solubility in pH 1.6 FaSSGF ([3]; Example 4, 37°C, LOQ: 0.5µg/mL): LOQ
- Solubility 2h [3, 11]: <LOQ
- Solubility 24h [3, 11]: LOQ
- Solubility 2h [3, 12]: <LOQ
- Solubility 24h [3, 12]: LOQ
- Solubility 2h ([3]; FeSSIF-v1, pH 5.0, 37°C): 16.2µg/ mL µg/mL and 23.3µg/mL
- Solubility 24h ([3]; FeSSIF-v1, pH 5.0, 37°C): 17.9 µg/mL and 20.9 µg/mL
- Solubility 2h ([3]; Water, 37°C): 1.4µg/m L µg/mL
- Solubility 24h ([3]; Water, 37°C): 1.4 µg/mL (≈ 2.71 µM)
- Solubility 2h [3, 13]: 7.8 µg/mL (≈ 15.1 µM)
- Solubility 24h [3, 13]: 8.9 µg/mL (≈ 17.2 µM)
- Solubility 2h ([3]; pH 4.5 Acetate buffer (50mM), 37°C, LOQ: 0.5 µg/mL): 2.8µg/m L µg/mL
- CL (color) [4, 10]: A
- Solid (HPLC) Purity [4, 10]: 98.7%
- Solid (XRPD) [4, 10]: T-5224 Form A
- CL (color) ([4]; 60°C, closed container): A
- Solid (HPLC) Purity ([4]; 60°C, closed container): 98.7%
- Solid (XRPD) ([4]; 60°C, closed container): T-5224 Form A
- diastolic function (E/E') [6]: had not yet shown significant changes
- AUC0-t [7, 14]: 670 ng·h/mL and 889 ng·h/mL and 855 ng·h/mL
- AUC0-∞ [7, 14]: 716 ng·h/mL and 913 ng·h/mL and 902 ng·h/mL
- C0 [7, 14]: 5514 ng/mL and 6797 ng/mL and 3784 ng/mL
- Cl [7, 14]: 46.5 mL/min/kg and 36.5 mL/min/kg and 36.9 mL/min/kg
- MRT [7, 14]: 0.55 h and 0.64 h and 0.68 h
- T1/2 [7, 14]: 3.27 h and 1.68 h and 2.36 h
- Vss [7, 14]: 3.36 L/kg and 1.86 L/kg and 2.51 L/kg
- Vz [7, 14]: 13.16 L/kg and 5.31 L/kg and 7.54 L/kg
- AUC0-t, Mean [7, 15]: 805 ng·h/mL
- AUC0-∞, Mean [7, 15]: 844 ng·h/mL
- C0, Mean [7, 15]: 5365 ng/mL
- Cl, Mean [7, 15]: 40.0 mL/min/kg
- MRT, Mean [7, 15]: 0.62 h
- T1/2, Mean [7, 15]: 2.44 h
- Vss, Mean [7, 15]: 2.58 L/kg
- Vz, Mean [7, 15]: 8.67 L/kg
- Tmax ([7]; Oral administration 12 mg/kg, individual animals): 0.25 h
- AUC0-t [7, 16]: 1052 ng·h/mL and 694 ng·h/mL and 864 ng·h/mL
- AUC0-∞ [7, 16]: 1070 ng·h/mL and 711 ng·h/mL and 876 ng·h/mL
- Cl -F [7, 16]: 187 mL/min/kg and 281 mL/min/kg and 228 mL/min/kg
- Cmax [7, 16]: 562 ng/mL and 751 ng/mL and 920 ng/mL
- MRT [7, 16]: 1.47 h and 1.04 h and 1.11 h
- T1/2 [7, 16]: 1.00 h and 1.44 h and 0.98 h
- Vz -F [7, 16]: 16.2 L/kg and 35.1 L/kg and 19.5 L/kg
- Tmax, Mean ([7]; Oral administration 12 mg/kg, mean of 3): 0.25 h
- AUC0-t, Mean [7, 17]: 870 ng·h/mL
- AUC0-∞, Mean [7, 17]: 886 ng·h/mL
- Cl -F, Mean [7, 17]: 232 mL/min/kg
- Cmax, Mean [7, 17]: 744 ng/mL
- MRT, Mean [7, 17]: 1.21 h
- T1/2, Mean [7, 17]: 1.14 h
- Vz -F, Mean [7, 17]: 23.6 L/kg

SMILES: O=C(O)CCc1cc(C(=O)c2ccc(OC3CCCC3)cc2O)ccc1OCc1ccc2c(O)noc2c1 [tert-Butylamine salt Form B]
- moisture absorption and color change of the solid [2, 8]: No significant moisture absorption of the solid; no significant color change.
- moisture absorption and color change of the solid [2, 9]: No significant moisture absorption of the solid; no significant color change.
